# Measurements from US20170028013A1, “COMBINATION FORMULATION OF LAQUINIMOD AND GLATIRAMER ACETATE WITH AMINO ACIDS” (Teva Pharmaceutical Industries, Ltd., priority 2015, published 2017).
# Tests used:
# [1] = pH optimum for stability and solubility; format: physicochemical
# Source text: Developing formulations containing laquinimod and GA is particularly difficult because laquinimod and GA have different pH optimums in terms of stability and solubility and because of undesired effects, mainly gelation or the formation of turbid formulations in the presence of various buffers, solvents and surface active agents.
# [2] = Visual clarity / turbidity of GA-laquinimod formulations; format: physicochemical; settings: GA 5-6 mg/mL; phosphate, acetate, hydrocarbonate buffers pH 5.5-8; 5° C. and 25° C./60% RH
# Procedure: As used herein, a “clear” solution, formulation or form is a solution, formulation or form which appears clear or transparent by visible inspection.
# In addition, for the characterization of the best scaled-up formulation comprising GA LAQ (1.1 mg/mL), L-lysine (1.4 mg/mL) and mannitol (43 mg/mL) as a tonicity agent, HPLC-SEC (size-exclusion chromatography) was used to evaluate the GA assay and molecular-weight distribution, while HPLC was used for LAQ assay. Clarity was evaluated using a 2100 AN turbidimeter. Functional tests for the drug product filled in pre-filled syringes were performed to evaluate Breakout and Gliding forces.
substance,measurement,setting,value
"L-glutamic acid polymer with L-alanine, L-lysine and L-tyrosine, acetate (salt) [Glatiramer acetate]",pH required to limit degradation,[1],≤ 7.0
same,Turbidity of GA solutions in buffers,[2],cause turbidity
